In doi:10.1101/2022.02.04.479134, “A Suite of TMPRSS2 Assays for Screening Drug Repurposing Candidates as Potential Treatments of COVID-19” (bioRxiv, 2022):
Where two headings read alike, the source gives them in different places.

Protein sequences, listed by entry. Tags and fused reporters are not part of them. Residues count along the entry.
UniProt O15393, 106-492: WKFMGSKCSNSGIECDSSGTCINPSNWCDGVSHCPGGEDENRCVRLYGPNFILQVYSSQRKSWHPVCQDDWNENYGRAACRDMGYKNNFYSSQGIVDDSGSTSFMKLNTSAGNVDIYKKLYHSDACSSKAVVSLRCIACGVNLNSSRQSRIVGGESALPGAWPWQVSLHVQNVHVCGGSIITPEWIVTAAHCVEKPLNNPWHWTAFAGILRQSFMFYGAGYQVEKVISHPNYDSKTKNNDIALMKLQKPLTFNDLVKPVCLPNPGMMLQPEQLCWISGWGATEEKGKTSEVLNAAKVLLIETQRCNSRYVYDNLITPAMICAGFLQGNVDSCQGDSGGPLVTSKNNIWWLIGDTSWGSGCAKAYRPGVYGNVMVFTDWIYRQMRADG

What was measured:
[1] = biological target: T1, Recombinant Human TMPRSS2 (Homo sapiens, UniProt O15393); experiment: biochemical
[2] = biological target: T1, Recombinant Human TMPRSS2; experiment: biochemical; remark: listed apart in the source
Description: Buffer conditions were tested and optimized to include: 50 mM Tris pH 8, 150 mM NaCl and 0.01% Tween20.
Following 1 h of incubation at RT, detection was done using the PHERAstar with 340 nm excitation and 440 nm emission (Table 1).
To determine compound activity in the assay, the concentration–response data for each sample was plotted and modeled by a four-parameter logistic fit yielding IC50 and maximal response values. […] Data normalization, visualization, and curve fitting were performed using Prism (GraphPad, San Diego, CA).

`O=S(=O)(F)Cc1ccccc1` [Phenylmethanesulfonyl fluoride (PMSF), Phenylmethanesulfonyl fluoride] was tested, and the AC50 [1] was 87.9 µM and the AC50 [2] was 4.68 µM.
`NCCc1ccc(S(=O)(=O)F)cc1` [4-(2-aminoethyl)benzenesulfonyl fluoride] showed an AC50 [1] of 23.4 µM and an AC50 [2] of 2.95 µM.
